Literature values in patent US5441941A, “1,2-dihydroellipticines with activity against CNS specific cancer” (The United States of America as represented by the …, priority 1993, dated 1995).

Experiments:
Sarcoma 180 (solid) = details: in vivo; cited from earlier work
[1] = test system: mouse lymphoid leukemia L-1210; details: in vivo; cited from earlier work

For COc1ccc2[nH]c3c(C)c4ccncc4c(C)c3c2c1 [9-methoxyellipticine], the “effect against tumor of animals” value (Sarcoma 180 (solid)) is given as “effective against the tumor of animals” and the antitumor activity [1] is given as “effective against the tumor of animals”.
